Experiments:
[1] = Solubility of SMANX in various solvents compared with NCS and starting copolymer (Table 1); assay type: physicochemical; settings: concentration: 1 mg/ml
Method: The solubility of SMANX in various solvents is shown in the following Table 1 and compared with NCS and the half butyl-esterified styrene-maleic anhydride copolymer used as the starting materials.
(concentration: 1 mg/ml)

cancer VX-2 of liver = assay: Tumor affinity in cancer VX-2 of liver after intravenous injection; assay type: in vivo, rabit; settings: 10 mg/kg, 90'
Excerpt: Tumor affinity in cancer VX-2 of liver of
rabit after intravenous injection of SMANX

[2] = test system: normal fibroblasts of rabit; assay: Cell toxicity to normal fibroblasts; assay type: cell-based; design: key: +: Intensity of toxicity; -: No toxicity; settings: judgement after 3 days
Excerpt: Comparison of cell toxicity
to normal fibroblasts of rabit*
*Judgement after 3 days

## neocarzinostatin-half butyl-esterified styrene-maleic acid copolymer complex [SMANX]
[1]
  Solubility in 10 mM aqueous solution of sodium bicarbonate: soluble
  Solubility in Acetone: swell
  Solubility in Dioxane: swell
  Solubility in Lipiodol: soluble
  Solubility in Methanol: soluble
  Solubility in Pyridine: soluble
[1]; pH 5.0
  Solubility in Water pH 5.0: insoluble
[1]; pH 8.0
  Solubility in Water pH 8.0: soluble
Cancer VX-2 of liver
  Tumor affinity, distant site (normal liver): < 0.32
  Tumor affinity, interior of tumor: 0.7
[2]; 0.2 μg/ml
  Cell toxicity to normal fibroblasts: -
[2]; 0.5 μg/ml
  Cell toxicity to normal fibroblasts: -
[2]; 1.8 μg/ml
  Cell toxicity to normal fibroblasts: -
